Here are results for one molecule from patent EP0726257A1, “1-(Hetero)Arylvinyl-5H-2,3-benzodiazepine derivatives useful for the treatment of central nervous system disorders, and benzopyrylium intermediates for their preparation” (EGIS GYOGYSZERGYAR RT., priority 1995, dated 1996).

SMILES strings stand for the structures.

Usually Ki stands for the equilibrium dissociation constant of an inhibitor or competing ligand from its target. High values mean a looser hold on the target, low ones a stronger hold on the target.

The assay deals with homophthalazine binding site. Briefly: Displacement of 3H-girisopam from the homophthalazine binding site in rat brain striatal membrane preparation. To be noted: displacing 5 nM 3H-girisopam. The protocol: The binding affinity of 1-[2'-(substituted) vinyl]-5H-2,3-benzodiazepine derivatives according to the invention and of the reference substances to the homophthalazine binding site was measured by displacing 5 nM of ^3H-l-(3'-〈chloro〉-phenyl)-4-(methyl)-7,8-di-(methoxy)-5H-2,3-benzodiazepine [^3H-girisopam] in rat brain striatal membrane preparation. Ki values were calculated according to the following equation: Ki = IC50 :(1 +([L])/(KD)), [formula] wherein KD is the dissociation constant of the labelled ligand-receptor complex, [L] is the concentration of the labelled ligand and IC50 is the half maximal inhibitory concentration of the test compound.
(Displacement assays read how much labelled ligand stays bound in the presence of the test substance.)

`COc1cc2c(cc1OC)C(c1ccc(N)cc1)=NN=C(C)C2` [nerisopam, 1-(4'-〈amino〉-phenyl)-4-(methyl)-7,8-di-(methoxy)-5H-2,3-benzodiazepine, reference compound] yielded a Ki of 16 nM.
